Compounds with a hit are over-represented: about 0.51% of the library has one in this group of screens.
CCT modulator = High-Throughput Screening for Modulators of Cytosolic Chaperonin Activity. purified chaperonin ATPase assay, HTRF ADP detection, 30 min. activity change, % (concentration not given with the values), hits read low. 0.3% of 360,000 active. AID 651819, 2012; in the data active = activity change below about -30%; note: % is set by controls: 0 for no effect and ±100 for the full control effect
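Enzyme 40 or 20 nM (batch-dependent) in Tris pH 7.4/KCl/MgCl2/DTT; cpd 76 uM single point; ATP 10 uM; 30 min 37 °C; Transcreener ADP HTRF detection, 30 min RT; ratio 665/615.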
Rango dissoc inh = qHTS Assay for Inhibitors of RanGTP induced Rango (Ran-regulated importin-beta cargo) - Importin beta complex dissociation | Potency, µM (series often up to 46.1 µM), for the others: at the highest dose activity change, negative = inhibition | AID 540253, 2011 | Biochemical FRET Rango-importin beta, RanGTP-induced dissociation | 0.071% of 340,000 active | Snurportin-1 (Homo sapiens) + GTP-binding nuclear protein Ran (Homo sapiens) + Importin …; note: potency is the fitted concentration of half-maximal effect; % of control where 0% means no effect; nearly all actives have a fitted effect of over 45% in size
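Compounds preincubate 5 min with complex of recombinant Rango and importin beta in PBS with 1 mM DTT. Ran (0.6 uM) loaded with 2 mM GTP plus 0.2 uM RCC1 starts dissociation; FRET is recorded 45 min later.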
Integrin act MD = qHTS for Activators of Integrin-Mediated Alleviation for Muscular Dystrophy | alpha7betagal myoblasts, beta-gal FDG fluorescence, 48 h | Potency, µM (top dose mostly 38.3 µM), for the others: at the highest dose activation, usual class: activators | 0.064% of 350,000 active; active = well fitted curve in the direction sought with a large enough effect; inconclusive = small, poorly fitted or top-dose-only effect, or another doubt; inactive = no such curve, though single readings can be large; an effect the other way counts as inactive or inconclusive;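 note: potency is the fitted concentration of half-maximal effect; 100% = response of the positive control SU9516; nearly all actives have a fitted effect of over 60% in size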
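Alpha7betagal+/- myoblasts (passage 13) were plated 16-24 hr, then exposed to compounds (1:260 dilution of DMSO stock) for 48 hours at 37C. After MPER lysis, β-galactosidase reporter activity was read as FDG fluorescence (ex 480/em 540) after 30 minutes.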
Mm-Cpn inhibitor = Inhibitors of TCP-1 ring complex (TRiC) of Methanococcus maripaludis (MmCpn): qHTS | Potency, µM (highest dose often 76.9 µM), for the others: top-dose activity, negative = inhibition, actives largely listed as inhibitors | Chaperonin Mm-Cpn (Methanococcus maripaludis) | 0.031% of 330,000 active | purified Mm-Cpn ATPase, ADP Transcreener TR-FRET | AID 504842, 2011; active = well fitted curve in the direction sought with a large enough effect; inconclusive = small, poorly fitted or top-dose-only effect, or another doubt; inactive = no such curve, though single readings can be large; an effect the other way counts as inactive or inconclusive; note: potency is the fitted concentration of half-maximal effect; % is set by controls: 0 for no effect and ±100 for the full control effect; nearly all actives have a fitted effect of over 80% in size
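Inhibition of chaperonin ATP hydrolysis is measured as reduced ADP production, detected by competitive TR-FRET in which signal falls with ADP. Final enzyme 25 nM and ATP 10 uM, reacted 30 min at 37°C.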
Rango complex inh = qHTS Assay for Inhibitors of Rango (Ran-regulated importin-beta cargo) - Importin beta complex formation; Importin subunit beta-1 (Homo sapiens), Q14974; Rango CFP/YFP FRET sensor + importin beta, 45 min; Potency, µM (highest dose often 92.2 µM), for inactives: at the highest dose inhibition of complex formation; 0.031% of 340,000 active; AID 540263, 2011;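 note: potency is the fitted concentration of half-maximal effect; 0% = DMSO wells and 100% = buffer wells lacking importin beta; nearly all actives have a fitted effect of over 15% in size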
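FRET biosensor Rango (snurportin 1 IBB between N-terminal EYFP and C-terminal Cerulean), 50 nM in PBS/1 mM DTT/0.02% Tween-20/0.1% BSA, preincubated 5 min RT with compound; 0.125 microM importin beta added, 45 min RT, CFP/YFP FRET ratio read.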
Starred values were filed as active, the others as inactive; ? = inconclusive; . = no result; ! = not active in a repeat; [ ] = dose if it differs, or a comment. Unless noted, calls come from the whole dose curve.

Protein sequences, listed by entry. Tags and fused reporters are not part of them.
Importin subunit beta-1 (Homo sapiens), Q14974, UniProt Q14974, whole entry, looked up: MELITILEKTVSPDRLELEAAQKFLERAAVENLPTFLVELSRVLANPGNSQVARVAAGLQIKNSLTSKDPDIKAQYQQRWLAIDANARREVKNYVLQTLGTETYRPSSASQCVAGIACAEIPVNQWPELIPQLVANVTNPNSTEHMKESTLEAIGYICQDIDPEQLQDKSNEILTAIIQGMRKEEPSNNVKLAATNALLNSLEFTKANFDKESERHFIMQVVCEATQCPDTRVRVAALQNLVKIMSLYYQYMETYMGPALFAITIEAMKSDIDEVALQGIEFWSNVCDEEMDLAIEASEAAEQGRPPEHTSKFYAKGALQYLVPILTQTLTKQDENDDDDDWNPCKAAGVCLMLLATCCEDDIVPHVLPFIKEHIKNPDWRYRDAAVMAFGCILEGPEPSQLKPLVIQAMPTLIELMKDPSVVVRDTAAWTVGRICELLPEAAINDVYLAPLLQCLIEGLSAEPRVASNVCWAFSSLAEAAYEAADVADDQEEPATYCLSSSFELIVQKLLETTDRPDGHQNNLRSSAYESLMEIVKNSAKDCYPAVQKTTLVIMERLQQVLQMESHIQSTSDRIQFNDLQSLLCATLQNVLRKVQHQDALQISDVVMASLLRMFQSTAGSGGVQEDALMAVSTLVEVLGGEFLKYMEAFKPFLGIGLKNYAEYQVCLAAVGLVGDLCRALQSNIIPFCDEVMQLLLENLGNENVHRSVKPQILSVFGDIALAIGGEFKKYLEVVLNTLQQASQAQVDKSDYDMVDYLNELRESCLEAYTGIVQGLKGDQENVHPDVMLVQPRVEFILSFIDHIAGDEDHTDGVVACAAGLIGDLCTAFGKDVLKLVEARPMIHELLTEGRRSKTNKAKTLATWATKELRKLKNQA

(1) C#Cc1ccc([C@H]2C=C(C(=O)NCc3nc4ccccc4[nH]3)O[C@@H](OCc3ccc(CO)cc3)C2)cc1
(2) O=C(NCc1nc2ccccc2[nH]1)C1=C[C@H](c2ccc(Br)cc2)C[C@H](OCc2ccc(CO)cc2)O1
(3) OC[C@@H]1CN(Cc2cccs2)C[C@H](n2cnc3c(NCc4ccncc4)ncnc32)O1
(4) CCOc1ccc(/C=C2\SC(=S)N(CCCC(=O)NCCCN3CCOCC3)C2=O)cc1
(5) CCCC1NC(=O)c2cc3ccccc3cc2-n2c1nc1cc(F)ccc1c2=O (stereo not drawn)
(6) O=C(CCc1ccccc1)Nc1cccc(S(=O)(=O)N2CCOCC2)c1
screen / no. | 1 | 2 | 3 | 4 | 5 | 6
CCT modulator | -1 | -49* | 0 | -38* | -2 | -35*
Rango dissoc inh | ? | -8% | . | -1% | . | -1%
Integrin act MD | -9% | -20% | . | -51% | -9% | -25%
Mm-Cpn inhibitor | . | . | . | 0% | . | 0%
Rango complex inh | ? | -3% | . | 0% | . | 4%

(7) O=C(NC1CC1)c1cccc(NC(=O)c2cc(S(=O)(=O)N3CCOCC3)ccc2Cl)c1
(8) COc1ccc(CCC(=O)Nc2cccc(S(=O)(=O)N3CCOCC3)c2)cc1OC
(9) Cc1ccc(S(=O)(=O)N2CCOCC2)cc1C(=O)Nc1cccc(C(=O)NC2CC2)c1
(10) CCOc1cccc(/C=N/NC(=S)Nc2cc(S(=O)(=O)N3CCOCC3)ccc2N2CCOCC2)c1O
(11) CC1(C(=O)NCc2cccs2)Cc2c(-c3ccc(C(N)=O)cc3)ccnc2O1 (stereo not drawn)
(12) CCCCNCCCCOc1ccccc1
screen / no. | 7 | 8 | 9 | 10 | 11 | 12
CCT modulator | -32* | -3 | -3 | -1 | 1 | -90*
Rango dissoc inh | ? | 0% | 1% | 3.7µM* | . | -10%
Integrin act MD | ? | -22% | 2% | -16% | . | -27%
Mm-Cpn inhibitor | -1% | 0% | 1% | -6% | . | 0%
Rango complex inh | 5% | -1% | -3% | ? | . | -3%

(13) CCCCNCCCOc1cccc(Cl)c1
(14) CCCCCCCCCCCCCCCC[n+]1cccc(C(=O)N(CC)CC)c1
(15) Cc1ccccc1C[C@H](C(=O)O)N1C(=O)c2ccc(C(=O)O)cc2C1=O
(16) CC(=O)c1ccc(OC2(C)CCN(Cc3cc4ccccc4[nH]3)C2)cc1 (stereo not drawn)
(17) Cc1cc(C)c2nc(C)cc(N/N=C/c3ccc(O)cc3)c2c1
(18) CN(C(=O)COC(=O)/C=C/c1ccccc1)C1CCS(=O)(=O)C1 (stereo not drawn)
screen / no. | 13 | 14 | 15 | 16 | 17 | 18
CCT modulator | -2 | -2 | . | -2 | -3 | 0
Rango dissoc inh | 7% | ? | . | . | 15µM* | .
Integrin act MD | 14%[7.66 µM] | -60% | . | . | -68% | 8%
Mm-Cpn inhibitor | 1% | -2% | 0% | . | -1% | .
Rango complex inh | 1% | 73µM*! | . | . | ? | .

(19) CCCCn1c(N)c(N(CC(C)C)C(=O)c2cccc(S(=O)(=O)N3CCCCC3)c2)c(=O)[nH]c1=O
(20) CCCCn1c(N)c(N(CC(C)C)C(=O)c2cccc(S(=O)(=O)N3CCCCCC3)c2)c(=O)[nH]c1=O
(21) N#Cc1ccc2c(c1)C[C@]1(CCCCN3C(=O)c4ccccc4C3=O)Oc3c(c(=O)oc4ccc(F)cc34)C2O1
(22) C=CCn1cc(CN2CCC(C(=O)Nc3ccc(Oc4cccnc4)cc3)CC2)c(C)n1
(23) CCn1cc(CN2CCC(C(=O)Nc3ccc(Oc4cccnc4)cc3)CC2)c(C)n1
(24) CCCCC1=CC2=CC(=O)C(C)(OC(=O)CC)C(=O)C2=CN1Cc1ccc(OC)cc1 (stereo not drawn)
(25) CCc1cc2c(-c3ccccc3)cc(=O)oc2cc1OC(=O)c1cccs1
(26) O=C(Oc1ccc2c(-c3ccccc3)cc(=O)oc2c1)c1cccs1
screen / no. | 19 | 20 | 21 | 22 | 23 | 24 | 25 | 26
CCT modulator | 0 | -81* | . | -31* | -4 | 0 | -2 | -1
Rango dissoc inh | 3% | 3% | . | -16% | -7% | 8.2µM* | 5.2µM* | ?
Integrin act MD | 2% | 25% | . | -27% | 20% | 3% | 5% | 5%
Mm-Cpn inhibitor | 2% | -9% | -2%[15.4 µM] | -1% | 0% | -3% | -3% | -1%
Rango complex inh | 0% | 1% | . | 1% | 3% | ? | ? | ?

Fetched by structure from the list above, 3 records:
(25) CCc1cc2c(-c3ccccc3)cc(=O)oc2cc1OC(=O)c1cccs1
(20) CCCCn1c(N)c(N(CC(C)C)C(=O)c2cccc(S(=O)(=O)N3CCCCCC3)c2)c(=O)[nH]c1=O
(24) CCCCC1=CC2=CC(=O)C(C)(OC(=O)CC)C(=O)C2=CN1Cc1ccc(OC)cc1 (stereo not drawn)
screen / no. | 25 | 20 | 24
CCT modulator | -2 | -81* | 0
Rango dissoc inh | 5.2µM* | 3% | 8.2µM*
Integrin act MD | 5% | 25% | 3%
Mm-Cpn inhibitor | -3% | -9% | -3%
Rango complex inh | ? | 1% | ?

Assay outcomes from PubChem BioAssay.
